In US6515124B2, “Dehydroamino acids” (Hoffman-La Roche Inc., priority 2000, dated 2003) one finds IC50 data, which are given here for one molecule.

Sequences of proteins named here, by UniProt entry; tags and fusion partners are left off. Residues count along the entry.
UniProt P05107, 23-769 limits assumed: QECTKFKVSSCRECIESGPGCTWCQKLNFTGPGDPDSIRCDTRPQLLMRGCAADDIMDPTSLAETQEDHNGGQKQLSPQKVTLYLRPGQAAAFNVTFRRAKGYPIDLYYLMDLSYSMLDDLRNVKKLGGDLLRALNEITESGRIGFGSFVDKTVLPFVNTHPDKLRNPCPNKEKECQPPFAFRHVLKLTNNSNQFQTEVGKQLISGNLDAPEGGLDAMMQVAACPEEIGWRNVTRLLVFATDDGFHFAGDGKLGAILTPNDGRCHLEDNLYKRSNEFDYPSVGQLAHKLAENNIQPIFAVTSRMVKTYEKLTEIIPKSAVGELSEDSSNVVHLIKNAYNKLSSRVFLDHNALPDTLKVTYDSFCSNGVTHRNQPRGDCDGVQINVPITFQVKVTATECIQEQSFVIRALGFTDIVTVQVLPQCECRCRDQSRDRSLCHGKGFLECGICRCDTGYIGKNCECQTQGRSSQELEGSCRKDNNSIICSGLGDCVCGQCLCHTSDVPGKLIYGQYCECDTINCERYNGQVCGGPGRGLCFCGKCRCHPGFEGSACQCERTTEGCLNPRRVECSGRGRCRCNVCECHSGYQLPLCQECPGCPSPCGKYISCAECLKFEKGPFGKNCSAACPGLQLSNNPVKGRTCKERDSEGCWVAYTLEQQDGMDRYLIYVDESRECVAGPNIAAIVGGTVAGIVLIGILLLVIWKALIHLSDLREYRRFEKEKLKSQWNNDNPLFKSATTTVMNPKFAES
UniProt P20701, 26-1170 limits assumed: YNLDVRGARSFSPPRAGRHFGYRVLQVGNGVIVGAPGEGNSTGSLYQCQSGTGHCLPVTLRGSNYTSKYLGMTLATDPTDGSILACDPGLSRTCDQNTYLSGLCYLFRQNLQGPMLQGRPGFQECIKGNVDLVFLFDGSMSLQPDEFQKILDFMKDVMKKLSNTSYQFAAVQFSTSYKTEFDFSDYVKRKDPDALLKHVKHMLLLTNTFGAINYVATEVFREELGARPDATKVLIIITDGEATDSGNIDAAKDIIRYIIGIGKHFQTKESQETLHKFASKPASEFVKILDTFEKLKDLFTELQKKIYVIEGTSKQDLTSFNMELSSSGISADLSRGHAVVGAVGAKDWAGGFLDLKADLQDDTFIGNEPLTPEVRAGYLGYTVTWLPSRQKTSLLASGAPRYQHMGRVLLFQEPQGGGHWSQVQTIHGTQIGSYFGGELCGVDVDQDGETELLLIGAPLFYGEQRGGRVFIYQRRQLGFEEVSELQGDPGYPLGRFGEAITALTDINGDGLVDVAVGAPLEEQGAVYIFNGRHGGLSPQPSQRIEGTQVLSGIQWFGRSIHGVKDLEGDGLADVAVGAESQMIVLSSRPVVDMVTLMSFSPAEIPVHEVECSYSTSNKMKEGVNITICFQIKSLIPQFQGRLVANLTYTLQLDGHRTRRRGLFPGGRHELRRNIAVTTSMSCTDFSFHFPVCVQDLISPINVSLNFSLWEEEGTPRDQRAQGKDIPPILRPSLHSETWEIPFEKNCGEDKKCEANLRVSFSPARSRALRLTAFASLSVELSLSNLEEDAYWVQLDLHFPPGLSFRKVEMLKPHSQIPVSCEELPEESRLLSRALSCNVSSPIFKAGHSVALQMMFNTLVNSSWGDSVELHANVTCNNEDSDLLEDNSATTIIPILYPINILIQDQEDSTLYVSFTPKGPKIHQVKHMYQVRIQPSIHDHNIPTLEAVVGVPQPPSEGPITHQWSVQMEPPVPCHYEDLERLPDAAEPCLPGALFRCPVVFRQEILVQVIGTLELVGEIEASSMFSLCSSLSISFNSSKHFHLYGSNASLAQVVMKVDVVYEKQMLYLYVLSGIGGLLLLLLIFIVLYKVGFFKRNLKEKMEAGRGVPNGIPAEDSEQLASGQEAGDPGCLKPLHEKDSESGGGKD

Each structure is given as a SMILES string.

The target in the assay is LFA-1 binding to immobilized ICAM-1 (Homo sapiens, UniProt P05107+P20701). The experiment in a line: LFA-1/ICAM-1 Protein-Protein Assay (solid-phase ELISA). The settings on record: read-out: LFA-1/ICAM-1 Protein-Protein Assay IC50; 5dICAM-Ig coated plates; membrane-bound LFA-1 from transfected 293 cells. The method, then: LFA-1/ICAM-1 Protein-Protein Assay
LFA-1/ICAM-1 antagonist activity, defined as the ability to block LFA-1 binding to immobilized ICAM-1, was quantitated using a solid-phase ELISA. Typically, fusion protein consisting of the entire extracellular domain of human ICAM-1 and the Fc domain of human IgG (5dICAM-Ig) was coated onto 96-well microtiter plates (0.15 μg in 100 μL PBS) overnight at 4° C. The plates were then blocked with 150 μL of 1% BSA/1 mM MnCl2/0.14 M NaCl/20 mM HEPES, pH 7.2 for 1 h at 37° C. and washed 3 times (150 μL each) with Wash Buffer (50 mM Tris, pH 7.4/100 mM NaCl/1 mM MnCl2/0.05% Tween 20). Stock solutions (100 μM in 100% DMSO) of test compounds were diluted 50 fold with 150 μL of Binding Buffer (0.05% BSA/0.05% Tween 20/1 mM MnCl2/0.14 M NaCl/20 mM HEPES, pH 7.2) plus 10% DMSO. A series of 1:4 dilutions were performed to achieve a concentration range of 0.12 nM-2 μM. Fifty μL per well of each dilution was added to the ICAM-1 coated plates, followed by 50 μL per well of membrane-bound LFA-1 (280 ng/mL in Binding Buffer) derived from transfected 293 cells. The plates were shaken vigorously for 1 min (room temperature) and gently for 2 h (37° C.). After incubation, the plates were washed 3 times (150 μL each) with Wash Buffer. […] The plates were then read at 450 nm.
(In an ELISA, binding on a coated surface is turned into a signal by an enzyme label.)

In the case of `O=C(O)/C(=C/c1cnc2ccccc2c1)NC(=O)c1ccc(C(=O)NCc2ccc3cc[nH]c3c2)cc1Br`, the IC50 came out at 0.0417 µM.
